{"sequences": {"note": "Sequences of proteins named here, by UniProt entry; tags and fusion partners are left off. A change or cut given only in a name is not applied to a line headed by its entry.", "UniProt P42338": "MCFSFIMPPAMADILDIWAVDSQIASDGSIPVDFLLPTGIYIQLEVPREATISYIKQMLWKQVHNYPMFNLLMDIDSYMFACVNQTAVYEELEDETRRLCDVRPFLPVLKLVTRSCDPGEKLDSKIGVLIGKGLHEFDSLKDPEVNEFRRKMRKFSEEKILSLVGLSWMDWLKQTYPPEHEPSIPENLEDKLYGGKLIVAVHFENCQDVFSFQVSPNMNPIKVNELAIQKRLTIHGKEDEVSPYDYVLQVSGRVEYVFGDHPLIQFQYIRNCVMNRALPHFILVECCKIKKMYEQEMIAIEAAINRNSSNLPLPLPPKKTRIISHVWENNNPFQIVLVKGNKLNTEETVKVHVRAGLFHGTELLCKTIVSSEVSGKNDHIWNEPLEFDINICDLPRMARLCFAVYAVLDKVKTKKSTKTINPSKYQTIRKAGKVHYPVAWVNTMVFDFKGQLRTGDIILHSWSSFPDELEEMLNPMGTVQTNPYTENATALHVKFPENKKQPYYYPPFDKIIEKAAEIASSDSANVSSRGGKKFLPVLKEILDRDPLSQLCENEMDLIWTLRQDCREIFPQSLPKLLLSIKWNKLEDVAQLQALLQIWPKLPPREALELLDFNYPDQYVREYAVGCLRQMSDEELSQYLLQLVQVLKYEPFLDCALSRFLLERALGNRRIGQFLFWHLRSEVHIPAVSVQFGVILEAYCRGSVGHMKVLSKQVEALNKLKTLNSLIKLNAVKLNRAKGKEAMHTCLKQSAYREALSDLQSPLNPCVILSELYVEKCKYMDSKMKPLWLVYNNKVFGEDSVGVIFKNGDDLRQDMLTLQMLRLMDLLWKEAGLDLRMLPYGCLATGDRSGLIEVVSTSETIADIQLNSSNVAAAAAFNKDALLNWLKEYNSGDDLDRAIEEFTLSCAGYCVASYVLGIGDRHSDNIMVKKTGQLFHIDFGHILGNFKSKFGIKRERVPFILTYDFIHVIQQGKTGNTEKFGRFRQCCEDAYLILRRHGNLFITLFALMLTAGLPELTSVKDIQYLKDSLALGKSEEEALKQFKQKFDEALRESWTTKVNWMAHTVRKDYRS"}, "source": "patent US8686137B2", "about": "“Heterocyclic compounds and their uses” (Amgen Inc., priority 2010, dated 2014)", "origin": "cited, not measured here", "biological_target": "p110β (Homo sapiens, UniProt P42338)", "conditions": "read-out: potency on beta"}
{"smiles": "Cc1cc(C(C)Nc2ccccc2)c2nc(N3CCOCC3)cc(=O)n2c1", "note": "(stereo not shown) [TGX-221]", "values": [{"measurement": "IC50", "value": 7, "unit": "nM"}]}
